scFv variants of Ab-14 (light chain) against a SARS-CoV-2 spike peptide

All variants were tested on one target, the spike HR2 peptide PDVDLGDISGINAS (SARS-CoV-2).

Each scFv is VH, the linker GGGGSGGGGSGGGGS, VL, as in the parent Ab-14, and differs from it in the CDRs of the light chain only.
VH: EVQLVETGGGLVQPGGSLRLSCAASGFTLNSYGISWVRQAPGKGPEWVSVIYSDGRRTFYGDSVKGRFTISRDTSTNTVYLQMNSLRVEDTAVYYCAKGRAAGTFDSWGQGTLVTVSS
VL: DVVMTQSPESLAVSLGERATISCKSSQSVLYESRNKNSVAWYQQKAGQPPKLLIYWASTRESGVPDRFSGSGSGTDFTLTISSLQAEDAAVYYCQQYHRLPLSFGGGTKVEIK

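Phage display of a naive human antibody library on the peptide gave the parent. This is the validation round: designs drawn from the data on random variants, tested in the same kind of assay. Several design methods are mixed in this list. Affinity was read by AlphaSeq, a pooled yeast mating assay with surface-displayed partners. The frequency of each diploid, read from paired DNA barcodes, reflects how well the two displayed proteins bind. Each replicate has its own calibration line, from reference interactions of the BCL2 family. Each pool was mated in six replicate cultures.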

Variants are written as CDR1, CDR2 and CDR3 of the light chain (limits as in the source). Parent: KSSQSVLYESRNKNSVA, WASTRES, QQYHRLPLS.
The Kd shown is the geometric mean over detected replicates; a lower Kd is a better binder.
"nd" means that the variant was in the library but no mating with the target was seen in any replicate; the authors take this as a sign of poor binding, and no number exists.
Entries are sorted by rising average, undetected variants last.
Empty control strains, which show no peptide, gave a signal in 4% of pairings with all light chain designs; the median was 430 nM and 95% of these signals were weaker than 38 nM. No background was subtracted.

With KFSMSEDYESRNKNSVA / NAQTRMS / QQYHRLPLS the result was 290 pM (6 of 6 replicates).
With RLLDQADGWTRNERNIA / DADHRGA / QQYSHLPLC the result was 420 pM (6 of 6 replicates).
With KFEQSVLYESRNKNAVA / NASQRES / QQYHRLPLS the result was 530 pM (6 of 6 replicates).
With KMQQSVLYESRNKNSVA / NASTRES / QQYHRLPLS the result was 550 pM (6 of 6 replicates).
With KLSGSQLYESRNKNSVA / NASTRLS / QQYHRLPLS the result was 570 pM (6 of 6 replicates).
With KLDQSVLYESRNKNSVA / HASTRES / QQYHRLPLS the result was 700 pM (6 of 6 replicates).
With KLDQSMLYESRNKNSVA / NASTRES / QQYHRLPLS the result was 770 pM (6 of 6 replicates).
With KLSWSVLYESRNKNSVA / EASTRES / QQYHRLPLS the result was 1.0 nM (6 of 6 replicates).
With KFSYSVLYEERNQNSVA / SASQREQ / QQYHRLPLS the result was 1.1 nM (6 of 6 replicates).
With KSSMSWLYEDRVKNSVA / GASTRES / QQYHRLPLS the result was 1.3 nM (6 of 6 replicates).
With KSSQSFLYESRNKNSVA / EASTRES / QQYHRLPLS the result was 1.3 nM (6 of 6 replicates).
With KDSQSVLYESRNKNSVA / DANTRES / QQYHRLPLS the result was 1.5 nM (6 of 6 replicates).
With KISGSHLYESRNWNAVA / EASTRES / QQYHRLPLS the result was 1.6 nM (6 of 6 replicates).
With NLYQSMNFLGRVMNSIA / DASTLPD / QQYHRLPLS the result was 1.8 nM (6 of 6 replicates).
With KSSQSVLYESRNKNSVA / GASIRES / QQYHRLPLS the result was 2.3 nM (6 of 6 replicates).
With KIHQSVLYEDRNINSVA / NASQRYS / QAYHRLPLS the result was 2.5 nM (6 of 6 replicates).
With MISGLVMSESRLKNSVA / QTTTRES / QQYDRLPLS the result was 3.0 nM (6 of 6 replicates).
With TIAQSMLYLSNSKNSIA / QAETRED / QQYHRLPIS the result was 3.2 nM (6 of 6 replicates).
With TVKMELEMFAQDKHSVA / EAVERES / QQYHRLPLI the result was 3.4 nM (6 of 6 replicates).
With HIQSESEHPYKDKNSMA / DAHCKAA / QQYFRLPLM the result was 3.8 nM (6 of 6 replicates).
With KSSQSVLYEDRNSNSVA / QASTRES / QQYHRLPLS the result was 5.0 nM (6 of 6 replicates).
With NMKVGLNFEDIQHQAIA / EVEKRES / QQYARLPLT the result was 6.2 nM (6 of 6 replicates).
With TLYGLTNSMSKNKDSVA / EMSTREA / QQYDRLPLM the result was 7.4 nM (6 of 6 replicates).
With KVGDSMAFLSRNRNSVA / DNSTRGS / QQYHRLPLS the result was 12 nM (6 of 6 replicates).
With TISQSINMTSRGKNSVA / QAEMRES / QQYDRLPLS the result was 12 nM (6 of 6 replicates).
With IVSQLMLWGYHAKNSIA / EAQTRLN / QQYDRLPLM the result was 17 nM (4 of 6 replicates).
With SMHPFDVAIGKGTQNVA / HVSVRAS / QQYDRLPLV the result was 18 nM (6 of 6 replicates).
With TIDDEMPNHGFKWNSIA / GVATVLQ / QQYDRLPLS the result was 20 nM (6 of 6 replicates).
With KSSQSVLIMSRNFNSVA / HASTRES / QQYHRLPLS the result was 22 nM (6 of 6 replicates).
With KLSGLMSSSKFAKDNVA / ENNTRED / QQYNRLPLS the result was 38 nM (6 of 6 replicates).
With KLQNQMGTMGKQNQAIA / QGAITRV / QQYQHLPLW the result was 44 nM (3 of 6 replicates).
With KLSMTYRYESQEKNSIA / EMSTREE / QSYHRLPLS the result was 49 nM (3 of 6 replicates).
With KNSQSVPYESRNKVSVA / RASTRES / QQYHRLPLS the result was 84 nM (6 of 6 replicates).
With HFQHLFFGDFAWANSIA / ERSQVCE / QQYFRLPLG the result was 110 nM (4 of 6 replicates).
With VVSQSVLYESRNKNSVA / TASLPES / QQYHRLPLS the result was 200 nM (2 of 6 replicates).
With KSSQPVLYEDRFKNSVA / WASTRES / QSYFRLPLS the result was 640 nM (3 of 6 replicates).
With IFYQSVLYEDRNKNSVA / WATTRES / QQYHRLELS the result was nd (0 of 6 replicates).
With KSSQSVLYESRNKNSVA / GASTRES / QQYHRLWLS the result was nd (0 of 6 replicates).
With MIEIIHDGYMEMRSAIA / DTSLVRM / QQYYRLPLM the result was nd (0 of 6 replicates).

4 of these entries, quoted again:

| CDR-L1 | CDR-L2 | CDR-L3 | Kd | detected |
|---|---|---|---|---|
| KLSGLMSSSKFAKDNVA | ENNTRED | QQYNRLPLS | 38 nM | 6/6 |
| KFSYSVLYEERNQNSVA | SASQREQ | QQYHRLPLS | 1.1 nM | 6/6 |
| KIHQSVLYEDRNINSVA | NASQRYS | QAYHRLPLS | 2.5 nM | 6/6 |
| TIAQSMLYLSNSKNSIA | QAETRED | QQYHRLPIS | 3.2 nM | 6/6 |

In the paper, a design with two or fewer of six values counts as a poor binder.
The range of this assay differs from that of the first round, and the authors advise against merging the two.

Reference: Li et al. 2023, doi:10.1038/s41467-023-39022-2. File: FLAb, binding data.